Results: PubChem BioAssay (NCI)
Only a part is listed here, and it is no random draw. Some of these compounds have results that are not shown, active ones among them. Calls of active or inactive are those of the source. Cut-off read from the data, not from the text of the source: active = growth inhibition above about 70%; inactive = the rest.

How the values were obtained:
[1] = NCI Yeast Anticancer Drug Screen. Data for the rad50 strain (AID 155);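 note: 0% = growth of vehicle-only cultures of the same strain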; details: S. cerevisiae rad50 strain growth inhibition; at 50.0 µM; hits give high values
[2] = NCI Yeast Anticancer Drug Screen. Data for the mec2-1 strain (AID 157); details: S. cerevisiae mec2-1 strain, at 50.0 µM, hits give high values
[3] = NCI Yeast Anticancer Drug Screen. Data for the sgs1 mgt1 strain (AID 161);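 note: 0% = growth of cultures given vehicle only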; details: S. cerevisiae sgs1 mgt1 strain, at 50.0 µM, hits give high values
[4] = NCI Yeast Anticancer Drug Screen. Data for the cln2 rad14 strain (AID 165);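 note: 0% = growth equal to vehicle treated cultures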; details: S. cerevisiae cln2 rad14 strain, at 50.0 µM, hits give high values
[5] = NCI Yeast Anticancer Drug Screen. Data for the bub3 strain (AID 167); details: S. cerevisiae bub3 mutant strain, at 50.0 µM, hits give high values
[6] = NCI Yeast Anticancer Drug Screen. Data for the mlh1 rad18 strain (AID 175); details: S. cerevisiae mlh1 rad18 strain growth inhibition; at 50.0 µM; hits give high values

Measured: growth inhibition

CC#CC(O)(C(=O)OC1C2CCN(CC2)C1C)C1CCCC1 (configuration not stated)
inactive: [1] 27.2% | [2] 20.7% | [3] 32.5% | [4] 19% | [5] 25.1% | [6] 16%

CCCCCC#CC(O)(C(=O)OC1CCN(C)CC1)c1ccccc1 (configuration not stated)
inactive: [1] 8% | [2] 7.4% | [3] 4.1% | [4] -9.7% | [5] 6.55% | [6] -4.85%

CC(C)C(O)(C(=O)O/C=C1\CC2CCN1CC2)c1ccccc1 (configuration not stated)
inactive: [1] 23.4% | [2] 17.2% | [3] 27.9% | [4] 24% | [5] 47.4% | [6] 38.8%

O=C(OCCN(C1CCCC1)C1CCCC1)C(O)(c1ccccc1)c1ccccc1
inactive: [1] -15.3% | [2] 8.35% | [3] -10.5% | [4] 10.1% | [5] 1.8% | [6] -14.1%

C=C(C)C#CC(O)(C(=O)OC1C2CCN(CC2)C1C)c1ccccc1 (configuration not stated)
inactive: [1] -20.4% | [2] -18.8% | [3] -21.6% | [4] -43.5% | [5] -41.8% | [6] -50.4%

C/C=C\C(O)(C(=O)OC1CN2CCC1CC2)C1CCCC1 (configuration not stated)
inactive: [1] 60% | [2] 32.5% | [3] 59.7% | [4] 35.5% | [5] 40.9% | [6] 52.4%

CN1CCCC(OC(=O)C(O)(c2ccccc2)C2CCCC2)C1 (configuration not stated)
inactive: [1] 22.1% | [2] 21.2% | [3] -4.7% | [4] -9.65% | [5] 24.5% | [6] 29%

CC#CC(O)(C(=O)OC1C2CCN(CC2)C1CC)C1CCCC1 (configuration not stated)
inactive: [1] 17.4% | [2] 29.4% | [3] 29.1% | [4] 23.9% | [5] 18.8% | [6] 36.1%

O=C(OC1CN2CCC1CC2)C(O)(C#Cc1ccccc1)c1ccccc1 (configuration not stated)
inactive: [1] 6.5% | [2] 12.4% | [3] 17.3% | [4] 13.1% | [5] 4.55% | [6] -4.05%

Cc1cc(C)c(O)c(CN(CC(C)Cl)CC(C)Cl)c1 (configuration not stated)
inactive: [1] 10.5% | [2] 18.1% | [3] 11.1% | [4] 8.1% | [5] -1.85% | [6] 5.3%

C=C(C)C#CC(O)(C(=O)OC1CCN(C)CC1)c1cccs1 (configuration not stated)
inactive: [1] 9.65% | [2] -8.55% | [3] -16.3% | [4] 13.4% | [5] 7.5% | [6] -15.9%

CC1(C)CCCN1CCOC(=O)C(O)(c1ccccc1)C1CCCC1 (configuration not stated)
inactive: [1] 17.2% | [2] 9.1% | [3] 9.3% | [4] 7.75% | [5] 6.75% | [6] 11.9%

Cc1cccc(C(O)(C(=O)OCCN2CCCCC2)c2cccc(C)c2)c1
inactive: [1] 16.9% | [2] 13.5% | [3] 23.9% | [4] 5.4% | [5] 23.1% | [6] 17.6%

C=C(C)C#CC(O)(C(=O)OC1C2CCN(CC2)C1C)C1CCCCC1 (configuration not stated)
inactive: [1] 0.8% | [2] -4.95% | [3] -25.3% | [4] 14.8% | [5] 21.1% | [6] -1.65%

CC(COC(=O)C(O)(c1ccccc1)c1ccccc1)N(C1CCCC1)C1CCCC1 (configuration not stated)
inactive: [1] -8.3% | [2] -0.4% | [3] -19.6% | [4] -31.7% | [5] 3.5% | [6] -9.65%

CC#CC(O)(C#CC)C(=O)OC1CN2CCC1CC2 (configuration not stated)
inactive: [1] 7.65% | [2] 7.95% | [3] 13.4% | [4] 13.2% | [5] 1.85% | [6] 12.6%

CCC#CC(O)(C(=O)OC1C2CCN(CC2)C1C)c1ccccc1 (configuration not stated)
inactive: [1] 29.4% | [2] 52.9% | [3] -11.1% | [4] 3.95% | [5] -6.5% | [6] -31.1%

C=C(C)C(O)(C(=O)OC1C2CCN(CC2)C1C)c1ccccc1 (configuration not stated)
inactive: [1] -16.8% | [2] -10.8% | [3] -26.4% | [4] 7.75% | [5] 10.4% | [6] -3.2%

CC/C=C\C(O)(C(=O)OC1CCN(C)CC1)C1CCCC1 (configuration not stated)
inactive: [1] 53.1% | [2] 31.3% | [3] 53.5% | [4] 37.1% | [5] 38.7% | [6] 46.7%

CCCCCN(CCCl)CCCl
inactive: [1] -11.4% | [2] 3.7% | [3] -5.95% | [4] -37.4% | [5] 1.4% | [6] 30.2%

CC#CC(O)(C(=O)OC1C2CCN(CC2)C1C)C1=CCCC1 (configuration not stated)
inactive: [1] -58.5% | [2] -9.35% | [3] -18.9% | [4] -19.4% | [5] -2.15% | [6] -53.3%

CC#CC(O)(C(=O)OC1CCN(C)CC1)C1CCCCC1 (configuration not stated)
inactive: [1] 46.5% | [2] 24.8% | [3] 57.4% | [4] 64.2% | [5] 59.9% | [6] 54.7%
